Assay results from patent EP3925956B1, “1H-INDAZOLE-3-CARBOXAMIDE DERIVATIVES AND RELATED COMPOUNDS AS FACTOR D INHIBITORS FOR TREATING DISEASES CHARACTERIZED BY ABERRANT COMPLEMENT SYSTEM ACTIVITY, SUCH AS E.G. IMMUNOLOGICAL DISORDERS” (BioCryst Pharmaceuticals, Inc., priority 2016, dated 2017).

Chains of the proteins cited; added tags and fusions are not shown. Residues count along the entry.
UniProt P00746, 26-253: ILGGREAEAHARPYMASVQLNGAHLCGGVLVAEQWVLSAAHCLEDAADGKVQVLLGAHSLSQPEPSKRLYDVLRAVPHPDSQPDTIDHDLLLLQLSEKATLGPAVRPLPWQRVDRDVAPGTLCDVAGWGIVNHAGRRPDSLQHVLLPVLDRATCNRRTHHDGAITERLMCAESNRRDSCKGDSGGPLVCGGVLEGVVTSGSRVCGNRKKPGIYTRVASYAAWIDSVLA

Biological target: Factor D (Homo sapiens, UniProt P00746)
Assay: Factor D esterolytic assay

For CC(C)N(CC(=O)NCc1cccc(Cl)c1F)C(=O)Cn1nc(C(N)=O)c2cc(C(=O)NCC3CC3)ccc21 [174a], the IC50 was < 1 µM.
